The target in this assay is T1, aromatase (Rattus norvegicus, UniProt P22443).
T1 sequence (P22443 1-508): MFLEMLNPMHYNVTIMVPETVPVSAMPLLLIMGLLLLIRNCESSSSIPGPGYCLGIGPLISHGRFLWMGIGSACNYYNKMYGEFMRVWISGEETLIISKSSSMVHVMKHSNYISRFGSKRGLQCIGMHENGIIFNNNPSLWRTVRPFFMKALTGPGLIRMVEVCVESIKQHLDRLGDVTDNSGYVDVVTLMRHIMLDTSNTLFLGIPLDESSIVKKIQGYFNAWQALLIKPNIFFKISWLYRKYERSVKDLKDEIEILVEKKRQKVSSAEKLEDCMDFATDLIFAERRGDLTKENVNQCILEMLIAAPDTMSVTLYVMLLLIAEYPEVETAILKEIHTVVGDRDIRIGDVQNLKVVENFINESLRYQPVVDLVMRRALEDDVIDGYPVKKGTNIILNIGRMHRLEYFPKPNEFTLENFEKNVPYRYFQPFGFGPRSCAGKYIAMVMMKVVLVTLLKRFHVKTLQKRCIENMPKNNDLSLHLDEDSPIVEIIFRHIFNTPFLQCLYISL
Briefly: biochemical. The procedure: Aromatase Inhibition in the Rat
Ovarian Microsome Assay
aromatase activity when substrate concentration is 0.1 μM.

One may read the EC50 as the concentration at which the effect is half-maximal. Low values mean an effect from little substance, high ones a need for much substance. The compound `CC1CSC(N(Cc2cccnc2)c2ccc(Cl)cc2)=N1` (stereo not shown) [N--(4-chlorophenyl)-N--(4,5-dihydro-4-methyl-2-thiazolyl)-3-pyridinemethanamine] gave a concentration giving a half-maximal response (EC50) of 26 nM.

These data come from patent US4767770A, “Method of inhibiting aromatase” (Eli Lilly and Company, priority 1984, dated 1988).
